Laboratory results from paper PMC4053365 (PLoS ONE, 2014).

Sequences of proteins named here, by UniProt entry; tags and fusion partners are left off. A change or cut given only in a name is not applied to a line headed by its entry.
UniProt P41145: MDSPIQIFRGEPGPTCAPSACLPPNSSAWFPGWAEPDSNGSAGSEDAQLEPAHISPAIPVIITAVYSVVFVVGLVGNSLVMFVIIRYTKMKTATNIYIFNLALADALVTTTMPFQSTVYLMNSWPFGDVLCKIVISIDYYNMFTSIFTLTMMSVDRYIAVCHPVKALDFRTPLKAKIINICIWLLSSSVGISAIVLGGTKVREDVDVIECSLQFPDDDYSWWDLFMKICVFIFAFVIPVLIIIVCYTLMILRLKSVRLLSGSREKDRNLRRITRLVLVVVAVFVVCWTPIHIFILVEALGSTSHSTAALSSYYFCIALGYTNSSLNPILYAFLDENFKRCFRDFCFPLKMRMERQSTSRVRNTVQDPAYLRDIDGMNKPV

Biological target: human KOP receptor (Homo sapiens, UniProt P41145)
Experiment: [35S]GTPγS functional assay, CHOhKOP cell membranes
Type: biochemical
Conditions: read-out: [35S]GTPγS functional assay KOP EC50, CHO membranes, mean ± SEM

5α,7α,8β-(−)N-methyl-N-[7-(1-pyrrolidinyl)-1-oxaspiro(4,5)dec-8-yl]benzeneacetamide
EC50: 42.7 nM
